Measured values published in publication PMC6545551 (ACS Omega, 2019).

The chains behind the UniProt entries cited, without tags or fusion partners. Residues count along the entry.
UniProt P23219, 24-599: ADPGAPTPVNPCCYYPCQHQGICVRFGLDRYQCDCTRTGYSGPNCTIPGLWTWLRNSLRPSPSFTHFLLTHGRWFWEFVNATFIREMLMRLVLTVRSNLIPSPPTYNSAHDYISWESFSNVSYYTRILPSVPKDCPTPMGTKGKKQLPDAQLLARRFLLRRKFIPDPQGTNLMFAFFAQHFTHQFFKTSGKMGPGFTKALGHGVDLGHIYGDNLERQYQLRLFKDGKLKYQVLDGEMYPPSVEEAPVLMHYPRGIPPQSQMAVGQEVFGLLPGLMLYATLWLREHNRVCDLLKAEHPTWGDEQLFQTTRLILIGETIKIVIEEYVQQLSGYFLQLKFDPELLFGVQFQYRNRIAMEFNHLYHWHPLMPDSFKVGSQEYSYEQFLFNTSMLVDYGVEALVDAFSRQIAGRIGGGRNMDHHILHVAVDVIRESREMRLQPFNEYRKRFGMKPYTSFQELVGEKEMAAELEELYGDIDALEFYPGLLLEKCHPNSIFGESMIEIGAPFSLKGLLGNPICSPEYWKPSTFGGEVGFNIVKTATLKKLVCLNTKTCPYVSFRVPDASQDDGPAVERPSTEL

Target: COX-1 in OVCAR3 cells (Homo sapiens, UniProt P23219)
Assay: Inhibition of COX-1 in intact OVCAR3 cells
Type: cell-based

CS(=O)(=O)c1ccc(C2=C(c3ccccc3)C(=O)OC2)cc1 [Refecoxib, reference compound]
IC50: > 5 µM
